Chains of the proteins cited; added tags and fusions are not shown. Residues count along the entry.
UniProt Q00987, 1-188 limits assumed: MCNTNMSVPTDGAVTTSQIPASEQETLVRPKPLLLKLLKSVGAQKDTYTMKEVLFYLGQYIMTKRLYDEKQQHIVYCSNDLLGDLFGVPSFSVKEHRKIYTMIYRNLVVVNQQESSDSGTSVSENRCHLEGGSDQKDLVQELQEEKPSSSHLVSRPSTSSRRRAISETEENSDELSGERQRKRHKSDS

This assay has as its target interaction between HDM2 and p53 (GST-hMDM2 (1-188) / biotinylated-p53 (1-83)) (Homo sapiens (Human), UniProt Q00987). Briefly: HTRF2 Assay (improved HTRF assay). Particulars: read-out: HTRF2 IC50; 0.2 nM GST-hMDM2 (1-188), 0.5 nM biotinylated-p53 (1-83), 100 mM KF. The class given is binding.
By IC50 is commonly meant the concentration needed to halve the response being measured. As for `CCC[C@@H](N1C(=O)CO[C@@H](c2ccc(Cl)cc2)[C@H]1c1ccc(Cl)cc1)C(C)(C)O` (relative stereo), the IC50 was determined as 12.6 µM.
For the molecule `CCC[C@H](C(=O)N1CCC(C(=O)O)CC1)N1C(=O)CO[C@@H](c2ccc(Cl)cc2)[C@H]1c1ccc(Cl)cc1` (relative stereo), the IC50 was found to be 3.36 µM.
On to `CCC[C@H](C(=O)N1CCN(CC(=O)O)CC1)N1C(=O)CO[C@@H](c2ccc(Cl)cc2)[C@H]1c1ccc(Cl)cc1` (relative stereo), for which the IC50 is 4.82 µM.
The value for `CCC[C@H](C(=O)N1CCN(CC(=O)O)CC1)N1C(=O)[C@H](Cc2ccc(C#N)cc2)O[C@@H](c2ccc(Cl)cc2)[C@H]1c1ccc(Cl)cc1` (relative stereo) was 0.674 µM.
Next, `CCC[C@H](C(=O)NCC(C)(C)C(=O)O)N1C(=O)[C@H](Cc2ccc(C#N)cc2)O[C@@H](c2ccc(Cl)cc2)[C@H]1c1ccc(Cl)cc1` (relative stereo): 0.633 µM; `CCC[C@H](C(=O)NCCC(=O)O)N1C(=O)CO[C@@H](c2ccc(Cl)cc2)[C@H]1c1ccc(Cl)cc1` (relative stereo): 3.05 µM.
Turning to `CCC[C@H](C(=O)O)N1C(=O)CO[C@@H](c2cccc(Cl)c2)[C@H]1c1ccc(Cl)cc1` (relative stereo), the IC50 is 7.81 µM.
On to `CCC[C@H](C(=O)O)N1C(=O)CO[C@H](c2ccc(Cl)cc2)[C@@H]1c1cc2ccccc2[nH]1` (relative stereo), for which the concentration for half-maximal inhibition (IC50) worked out at 5.9 µM.
The value for `CCC[C@H](C(=O)O)N1C(=O)[C@@H](Cc2ccc(S(C)(=O)=O)cc2)O[C@H](c2ccc(Cl)cc2)[C@@H]1c1ccc(Cl)cc1` (relative stereo) was 3.75 µM.
The value for `CCC[C@H](CNC(=O)CC(=O)O)N1C(=O)CO[C@@H](c2ccc(Cl)cc2)[C@H]1c1ccc(Cl)cc1` (relative stereo) was 5.5 µM.
Next, `CCC[C@H](CNC(=O)Cc1nnn[nH]1)N1C(=O)CO[C@@H](c2ccc(Cl)cc2)[C@H]1c1ccc(Cl)cc1` (relative stereo): 10.9 µM; `CCC[C@H](CNCC(=O)O)N1C(=O)CO[C@@H](c2ccc(Cl)cc2)[C@H]1c1ccc(Cl)cc1` (relative stereo): 7.12 µM; `CN1C(=O)[C@@H](Cc2ccc(C#N)c(F)c2)O[C@H](c2ccc(Cl)cc2)[C@@H]1c1ccc(Cl)cc1` (relative stereo): 6.3 µM.
As to `CN1C(=O)[C@@H](Cc2ccc(C#N)cc2)O[C@H](c2ccc(Cl)cc2)[C@@H]1c1ccc(Cl)cc1` (relative stereo), the concentration for half-maximal inhibition (IC50) was 6.3 µM.
The value for `CN1C(=O)[C@@H](Cc2ccc(S(C)(=O)=O)cc2)O[C@H](c2ccc(Cl)cc2)[C@@H]1c1ccc(Cl)cc1` (relative stereo) was 4.33 µM; that for `COC(=O)c1ccc(C[C@H]2O[C@H](c3ccc(Cl)cc3)[C@H](c3ccc(Cl)cc3)N(C)C2=O)cc1` (relative stereo) was 6.14 µM.
Next, `CSc1nccc(N2C(=O)CO[C@@H](c3ccc(Cl)cc3)[C@H]2c2ccc(Cl)cc2)n1` (relative stereo): 5 µM; `Cc1nnc(C[C@H]2O[C@H](c3cccc(Cl)c3)[C@H](c3ccc(Cl)cc3)N(CC3CC3)C2=O)o1` (relative stereo): 4.96 µM.
As to `O=C(O)C[C@H]1O[C@H](c2ccc(F)c(Cl)c2)[C@H](c2ccc(Cl)cc2)N(CC2CC2)C1=O` (relative stereo), the IC50 is 4.22 µM.
The value for `O=C(O)C[C@H]1O[C@H](c2cccc(Cl)c2)[C@H](c2ccc(Cl)cc2)N(C(=O)C2CC2)C1=O` (relative stereo) was 10.8 µM; that for `O=C(O)[C@@H](C1CC1)N1C(=O)[C@H](Cc2ccc(F)cc2)O[C@@H](c2cccc(Cl)c2)[C@H]1c1ccc(Cl)cc1` (relative stereo) was 7.85 µM; that for `O=C1CO[C@@H](c2cccc(Cl)c2)[C@@H](c2ccc(Cl)cc2)N1CC1CCC1` (relative stereo) was 6.25 µM.
The value for `O=C1CO[C@@H](c2cccc(Cl)c2)[C@@H](c2ccc(Cl)cc2)N1S(=O)(=O)C1CC1` (relative stereo) was 7.9 µM.

For the origin of these results see patent US11407721B2, “CIS-morpholinone and other compounds as MDM2 inhibitors for the treatment of cancer” (AMGEN INC., priority 2013, dated 2022).
